Experimental data reported in patent publication US20220334101A1, “MODULATING EXTRACELLULAR MATRIX MOVEMENT” (Helmholtz Zentrum Muenchen - Deutsches Forschungszentrum …, priority 2019, published 2022).

Test system: skin-fascia explants
Assay: Scar-in-a-dish (SCAD) ex vivo skin-fascia explant assay, screening of Prestwick chemical library
Type: cell-based, mouse
Details: molecules of table 1 named as inhibitors of ECM movement
Text: Post born Day 0 (P0) neonates of C57BL/6J wild type mouse were first sacrificed by decapitation. Then dorsal back skin was isolated to make 2 mm full thickness biopsies (0 2 mm, Stiefel) that included the epidermis, dermis and deep subcutaneous fascia layers. The whole skin tissue explant system is termed as scar-in-a-dish (SCAD) assay (Patent Application no. PLA17A13). The SCAD tissue was maintained in DMEM/F12 cell culture medium (Life Technologies) supplemented with 10% FBS (Life Technologies), 1% non-essential amino acid (Thermo Fisher), 1% Glutamax (Thermo Fisher), 1% penicillin and streptomycin (Thermo Fisher) in a 37° C. incubator supplied with […] and 5% CO2. Medium was changed every other day until day 5 when SCADs were collected and fixed for histology analysis. To be noticed, the excised skin was submerged […] in culture media, which confined the scar-prone fibroblasts to the explant and discouraged their adherence to the tissue culture plate.
The PCL provides an additional advantage as all chemicals are of stable physicochemical properties, show a high range of chemical diversity, and are with known bioavailability and safety data in humans. All these information helps to reduce the probability of screening low-quality hits and save the costs of preliminary screening process. […]

Amyleine hydrochloride
phenotype as inhibitor of ECM movement: anti-fibrotic phenotype
